Measurements as given in patent US20080269266A1, “NOVEL COMPOUNDS 747” (ASTRAZENECA AB, priority 2007, published 2008).

Chains of the proteins cited; added tags and fusions are not shown.
UniProt P11712, whole entry: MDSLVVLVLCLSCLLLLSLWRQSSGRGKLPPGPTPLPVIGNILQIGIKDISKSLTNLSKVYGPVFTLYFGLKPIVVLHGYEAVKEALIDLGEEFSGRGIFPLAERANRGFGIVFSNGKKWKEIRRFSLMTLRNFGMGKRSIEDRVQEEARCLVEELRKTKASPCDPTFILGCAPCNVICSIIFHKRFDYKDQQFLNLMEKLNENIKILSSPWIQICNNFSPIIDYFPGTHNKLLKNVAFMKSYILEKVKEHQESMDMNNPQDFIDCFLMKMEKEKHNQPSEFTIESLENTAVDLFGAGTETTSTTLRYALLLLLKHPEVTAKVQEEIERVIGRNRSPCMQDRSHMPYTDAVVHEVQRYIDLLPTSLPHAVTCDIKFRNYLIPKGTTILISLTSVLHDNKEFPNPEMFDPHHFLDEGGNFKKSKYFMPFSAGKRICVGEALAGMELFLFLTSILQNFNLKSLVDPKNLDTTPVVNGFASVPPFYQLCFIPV

Biological target: human cytochrome P450 (CYP) 2C9 (Homo sapiens, UniProt P11712)
Experiment: Cytochrome P450 Inhibition Assay 2C9
Details: read-out: IC50 range, CYP 2C9; expected IC50 range of known inhibitor (positive control); substrate 50 μM
Method: The inhibitory potential (IC50) of test compounds against 5 human cytochrome P450 (CYP) isoforms (1A2, 2C9, 2C19, 3A4 and 2D6) was assessed using an automated fluorescent end point in vitro assay modified from Crespi (Crespi and Stresser, 2000). Microsomal subcellular fractions prepared from Yeast cell lines expressing each human CYP isoform were used as an enzyme source in this assay. The activity of the 5 major human CYPs was determined from the biotransformation of a number of coumarin substrates to fluorescent metabolites, in the presence of NADPH. […] Stock solutions of each CYP, with its respective substrate, were prepared in phosphate buffer pH7.4 (see Table 1) and 178 μl was added to the well of a black solid, flat bottom, 300 μl 96 well is microtitre plate (Corning Costar). […] After pre-incubating at 37° C. for 5 min the reactions were started with addition of NADPH (20 μl, concentration shown in Table 1). […] The appropriate solvent controls and substrate blanks were included in each experiment to assess control activity and identify any inherent fluorescence due to the test compounds. […] The plates were read on a fluorimeter (Spectrafluor Plus) at the appropriate excitation and emission wavelengths (listed in Table 2) and the percent activity, corrected for control, was plotted against the test compound concentration.

Sulphaphenazole
IC50: 100 to 1000 nM
